Experimental data as given in patent publication US5026711A, “4-amino quinolines and naphthyridines and their use as medicines” (priority 1988, dated 1991).

Target: central benzodiazepine receptors
Assay: inhibition of specific binding of [3H] flunitrazepam to central benzodiazepine receptors, rat brain
Details: 4° C., pH 7.4
Text: A study has also been made of their in vitro affinity for central benzodiazepine receptors and for those of the peripheral type according to the methods described in what follows: the IC50 in vitro has been determined, i.e. the concentration in the medium of the studied product which inhibits 50% of the binding to the benzodiazepine receptors of a binder known to be specific for these receptors.
(b) determination of the concentration of the product under study inhibiting 50% of the specific binding of flunitrazepam to the central receptors.
The brains of rats were removed after decapitation and ground, then placed in suspension in an aqueous solution of sucrose (0.32M). The mixture is centrifuged and the pellet is resuspended to give a homogenous suspension in a TRIS-HCl buffered solution (50 mM; pH=7.4). Aliquots of this suspension are incubated at 4° C. after addition of [^3 H] flunitrazepam, alone or with increasing amounts of the compound to be tested. The amount of labelled product bound to the membranes after the latter have been separated from the incubation medium by binding to glass fiber filters is determined by means of liquid scintillation counting and the IC50 is calculated by means of the logit-log method; non-specificbinding of flunitrazepam is determined by introducing 2 μM of clonazepam.

CCC(C)N(C)C(=O)c1cc2ccccc2c(-c2ccccc2Cl)n1 (stereo not shown) [PK11195, 1-(2-chlorophenyl) 3-(N-methyl N-methylpropyl) carbamoyl isoquinoline, reference compound]
IC50: 21.4 µM
